PubChem BioAssay AID2237 (Johns Hopkins Ion Channel Center, 2010)
The entries are a selection whose mix differs from that of the whole data set. Activity calls are given as the source filed them.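 The calls were made as follows: active = B-score above 5 SD of library B-scores, and initial fluorescence ratio not above library mean plus 5 SD; inactive = the rest.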

Sequences of proteins named here, by UniProt entry; tags and fusion partners are left off.
UniProt Q9QUQ5, whole entry: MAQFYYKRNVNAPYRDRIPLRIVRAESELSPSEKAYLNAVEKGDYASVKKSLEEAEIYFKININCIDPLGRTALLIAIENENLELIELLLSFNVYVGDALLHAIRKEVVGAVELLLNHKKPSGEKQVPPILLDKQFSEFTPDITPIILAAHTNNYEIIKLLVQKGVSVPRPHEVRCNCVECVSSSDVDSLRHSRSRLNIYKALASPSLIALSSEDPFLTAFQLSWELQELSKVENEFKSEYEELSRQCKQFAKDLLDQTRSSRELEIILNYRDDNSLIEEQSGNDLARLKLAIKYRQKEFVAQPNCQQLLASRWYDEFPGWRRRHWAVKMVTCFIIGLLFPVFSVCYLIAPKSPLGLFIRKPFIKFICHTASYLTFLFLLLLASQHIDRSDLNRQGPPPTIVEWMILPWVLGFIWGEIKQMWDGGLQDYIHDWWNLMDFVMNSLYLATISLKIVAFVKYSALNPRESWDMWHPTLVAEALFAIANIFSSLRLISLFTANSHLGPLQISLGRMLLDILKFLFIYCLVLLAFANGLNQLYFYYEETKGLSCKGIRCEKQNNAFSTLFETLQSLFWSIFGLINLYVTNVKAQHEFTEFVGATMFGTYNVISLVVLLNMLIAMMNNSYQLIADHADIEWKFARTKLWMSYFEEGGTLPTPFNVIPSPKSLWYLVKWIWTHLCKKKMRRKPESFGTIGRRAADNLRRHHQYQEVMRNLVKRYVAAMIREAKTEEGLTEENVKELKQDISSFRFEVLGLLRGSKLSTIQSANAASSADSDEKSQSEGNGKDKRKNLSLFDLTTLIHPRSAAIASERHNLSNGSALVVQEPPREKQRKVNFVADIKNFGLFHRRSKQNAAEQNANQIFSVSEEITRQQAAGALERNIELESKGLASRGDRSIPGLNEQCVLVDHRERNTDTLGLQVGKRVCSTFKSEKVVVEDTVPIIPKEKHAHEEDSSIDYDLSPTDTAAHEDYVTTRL

target: Short transient receptor potential channel 4 (Mus musculus) (UniProt Q9QUQ5); test: TRPC4 cation channel opening, calcium rise – Fluo4 calcium, HEK293 TRPC4beta/mu-opioid cells, primary screen (AID 2237); conditions: Fluo4 calcium fluorescence, at 10 µM; hits give high values;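 as to B-score: positive B-score marks a calcium rise read as TRPC4 activation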

Row | SMILES | outcome | B-score
1 | O=C(O)COc1ccc([As](=O)(O)O)cc1[N+](=O)[O-] | inactive | –
2 | O=P(Nc1nccs1)(Oc1ccccc1)Oc1ccccc1 | inactive | –
3 | O=P(Nc1nccs1)(c1ccccc1)c1nc2ccccc2s1 (centres undefined) | inactive | –
4 | CCOP1(=S)c2c(C)nn(CCC#N)c2N=C(c2ccccc2F)N1C (centres undefined) | inactive | –
5 | O=C(O)c1cccc(Nc2c([N+](=O)[O-])cc([N+](=O)[O-])cc2[N+](=O)[O-])c1 | inactive | –
6 | CS(=O)(=O)c1cc([N+](=O)[O-])c2no[n+]([O-])c2c1 | inactive | –
7 | CCOP1(=S)c2c(C)nn(CCC#N)c2N=C(c2ccc(F)cc2)N1C (centres undefined) | inactive | –
8 | CN(C(=O)Cc1ccccc1)[C@@H]1CC[C@]2(CCCO2)C[C@H]1N1CCCC1 | inactive | –
9 | N#CCCN(C(=O)COC(=O)C(O)(c1ccccc1)c1ccccc1)c1ccc(F)cc1 | inactive | –
10 | CC1=NCCc2c1[nH]c1ccccc21.O=[N+]([O-])c1cc([N+](=O)[O-])c(O)c([N+](=O)[O-])c1 | inactive | –
11 | CN(C(=O)Cc1ccc(Cl)c(Cl)c1)[C@H]1CC[C@@]2(CCCO2)C[C@@H]1N1CCCC1 | – | active: 76
12 | O=[N+]([O-])c1ccc2c(c1)nnn2O | inactive | –
13 | CN(C)C(=O)c1cc([N+](=O)[O-])cc2c1-c1c(cc([N+](=O)[O-])cc1[N+](=O)[O-])C2=O | inactive | –
14 | NC(=O)Nc1ccc([As](=O)(O)O)cc1 | inactive | –
15 | Cc1cc(C)cc(OP(C)(=O)Nc2ccc(C)cc2C)c1 (centres undefined) | inactive | –
16 | Cc1cccc(OCC(=O)OC2CN3CCC2CC3)c1 (centres undefined) | inactive | –
17 | O=[As](O)(c1cccc(O)c1)c1cccc(O)c1 | inactive | –
18 | CCOC(=O)c1ccc(NP(C)(=O)Oc2cc(C)cc(C)c2)cc1 (centres undefined) | inactive | –
19 | O=C(OC1CN2CCC1CC2)c1ccc(Cl)cc1 (centres undefined) | inactive | –
20 | COc1ccccc1OP(C)(=O)Nc1cccc(Br)c1 (centres undefined) | inactive | –
21 | CS(=O)(=O)c1ccc(Cl)c(NC(=O)COC(=O)C(O)(c2ccccc2)c2ccccc2)c1 | inactive | –
22 | O=[As](O)(O)c1cccnc1 | inactive | –
23 | COc1cc(C(=O)NCC2(N3CCOCC3)CCCCC2)cc(Cl)c1OC(C)C | inactive | –
24 | CCOP(=O)(Nc1cccc2ccccc12)OCC | inactive | –
25 | Cc1ccc(NCCc2c([N+](=O)[O-])cc([N+](=O)[O-])cc2[N+](=O)[O-])cc1 | inactive | –

Row | SMILES | outcome | B-score
26 | Nc1cccc2c([As](=O)(O)O)cccc12 | inactive | –
27 | Cc1cc(C)cc(OP(C)(=O)Nc2ccccn2)c1 (centres undefined) | inactive | –
28 | CP(=O)(Nc1cccc(Br)c1)Oc1ccccc1 (centres undefined) | inactive | –
29 | Cc1ccc(C)c(NP(C)(=O)Oc2ccccc2)c1 (centres undefined) | inactive | –
30 | CCCOP(=S)(Nc1nc(N)cc(=O)[nH]1)OCCC | inactive | –
31 | COc1cc(I)ccc1[As](=O)(O)O | inactive | –
32 | COc1ccc2nc(NP(=O)(c3ccccc3)c3ccccc3)sc2c1 | inactive | –
33 | Cc1c2c(nc3ccccc13)SC(C(Cl)Cl)C2 (centres undefined) | inactive | –
34 | Cc1cc(=O)[nH]c(N[N+](=O)[O-])n1 | inactive | –
35 | CCN(CC)CCCOC(=O)C(O)(c1ccccc1)c1ccccc1 | inactive | –
36 | O=C(OC1CN2CCC1CC2)C12CC3CC(CC(C3)C1)C2 (centres undefined) | inactive | –
37 | COc1ccc(N/C(=N/P(=O)(N2CCOCC2)N2CCOCC2)N2CCOCC2)cc1 | inactive | –
38 | Cc1cccc(C)c1OP(C)(N)=O (centres undefined) | inactive | –
39 | Cc1ccc(OP(=O)(Nc2ccc([N+](=O)[O-])cn2)Oc2ccc(C)cc2)cc1 | inactive | –
40 | CC(C)(C)c1ccc(OP(C)(=O)Nc2ccc(SC(F)(F)F)cc2)cc1 (centres undefined) | inactive | –
41 | O=[N+]([O-])c1ccc2c(c1)C=Nc1ccccc1O2 | inactive | –
42 | Cc1ccc2nc3c(c(C)c2c1)CC(C(Cl)Cl)S3 (centres undefined) | inactive | –
43 | O=[N+]([O-])c1cc([N+](=O)[O-])c(Nc2cccnc2)c([N+](=O)[O-])c1 | inactive | –
44 | O=[As](O)(c1ccc(O)cc1)c1ccccc1O | inactive | –
45 | C[As](=O)(O)c1cccc(C(=O)O)c1 | inactive | –
46 | COc1ccc(OP(C)(=O)Nc2cccc(F)c2)cc1 (centres undefined) | inactive | –
47 | O=[N+]([O-])c1cc([N+](=O)[O-])c(-c2ccn[nH]2)s1 | inactive | –
48 | COc1ccccc1OP(C)(=O)Nc1cc(Cl)ccc1C (centres undefined) | inactive | –
49 | CC(C)NC(=O)NP(=O)(Oc1ccccc1)Oc1ccccc1 | inactive | –
50 | CCN(CC)C(=S)SC(NC=O)C(Cl)(Cl)Cl (centres undefined) | inactive | –

Row | SMILES | outcome | B-score
51 | Cc1cc(C)cc(OP(C)(N)=O)c1 (centres undefined) | inactive | –
52 | ClCCSc1nnc(-c2cccnc2)o1 | inactive | –
53 | CCOC(=O)c1ccc(NP(C)(=O)Oc2ccccc2)cc1 (centres undefined) | inactive | –
54 | Cc1ccc(NP(C)(=O)Oc2ccccc2)c(C)c1 (centres undefined) | inactive | –
55 | CC(C)c1ccc(OP(=O)(Nc2ccccn2)Oc2ccccc2F)cc1 (centres undefined) | inactive | –
56 | COc1ccccc1OP(C)(=O)Nc1ccc(C)cc1 (centres undefined) | inactive | –
57 | Cc1cc(SC(NC(=O)c2ccccc2)C(Cl)(Cl)Cl)nc(C(C)C)n1 (centres undefined) | inactive | –
58 | CCCCOc1ccc(C(=O)NCC2(N3CCCCC3)CCCCC2)cc1OC | inactive | –
59 | CCOC(=O)Nc1ccc([As](=O)(O)O)c(O)c1 | inactive | –
60 | COc1ccccc1OP(C)(=O)Nc1ccccc1 (centres undefined) | inactive | –
61 | O=P(Nc1ccccn1)(c1cccc2ccccc12)c1cccc2ccccc12 | inactive | –
62 | Cc1cc(SC(NC=O)C(Cl)(Cl)Cl)ncn1 (centres undefined) | inactive | –
63 | O=[N+]([O-])c1ccc(Nc2ccc(Oc3ccc([N+](=O)[O-])cc3[N+](=O)[O-])cc2)c([N+](=O)[O-])c1 | inactive | –
64 | CP(=O)(Nc1ccccc1Br)Oc1ccccc1 (centres undefined) | inactive | –
65 | CP(=S)(Nn1cnnc1)Oc1ccccc1 (centres undefined) | inactive | –
66 | CCOC(=O)Nc1cccc([As](=O)(O)O)c1 | inactive | –
67 | Cc1cc(C)cc(OP(C)(=O)Nc2ccc(SC(F)(F)F)cc2)c1 (centres undefined) | inactive | –
68 | O=C(Nc1ccncc1[N+](=O)[O-])c1ccc([N+](=O)[O-])cc1[N+](=O)[O-] | inactive | –
69 | O=C(COc1ccccc1)OC1CN2CCC1CC2 (centres undefined) | inactive | –
70 | CP(=O)(NC(=O)Nc1ccccc1)Oc1ccccc1 (centres undefined) | inactive | –
71 | CCc1ccc(OP(C)(=O)N2CCN(c3ccc([N+](=O)[O-])cc3)CC2)cc1 (centres undefined) | inactive | –
72 | CP(=O)(Oc1ccccc1)OC(c1ccccc1)C(F)(F)F (centres undefined) | inactive | –
73 | COP1(=S)c2c(C)nn(CCC#N)c2N=C(c2ccc(F)cc2)N1C (centres undefined) | inactive | –
74 | Cc1cccc(C)c1OP(C)(=O)Nc1ccc(SC(F)(F)F)cc1 (centres undefined) | inactive | –
